The source of these data is US10144746B2 (GLOBAL BLOOD THERAPEUTICS, INC., priority 2015, dated 2018).

Protein sequences, listed by entry. Tags and fused reporters are not part of them. Residues count along the entry.
UniProt P03952, 20-390 partner: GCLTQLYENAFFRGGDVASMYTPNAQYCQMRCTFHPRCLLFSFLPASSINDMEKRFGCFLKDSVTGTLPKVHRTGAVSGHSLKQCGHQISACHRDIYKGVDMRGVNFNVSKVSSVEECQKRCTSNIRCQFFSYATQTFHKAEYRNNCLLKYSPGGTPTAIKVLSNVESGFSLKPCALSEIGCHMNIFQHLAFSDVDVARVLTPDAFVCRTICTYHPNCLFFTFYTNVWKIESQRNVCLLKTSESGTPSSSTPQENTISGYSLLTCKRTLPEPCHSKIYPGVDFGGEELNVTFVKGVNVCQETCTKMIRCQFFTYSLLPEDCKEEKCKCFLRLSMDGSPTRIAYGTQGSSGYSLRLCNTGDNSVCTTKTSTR
UniProt P03952, 391-638: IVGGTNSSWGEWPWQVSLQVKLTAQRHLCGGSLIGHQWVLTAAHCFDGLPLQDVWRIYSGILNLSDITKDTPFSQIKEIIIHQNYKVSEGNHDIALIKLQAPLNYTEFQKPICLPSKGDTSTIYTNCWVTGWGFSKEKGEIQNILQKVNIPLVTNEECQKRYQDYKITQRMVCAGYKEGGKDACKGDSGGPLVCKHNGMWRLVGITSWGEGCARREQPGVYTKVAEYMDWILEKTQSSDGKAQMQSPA

The target of this assay is Human plasma kallikrein (Homo sapiens (Human), UniProt P03952). Nature of the assay: In vitro plasma kallikrein inhibition assay (chromogenic substrate D-Pro-Phe-Arg-pNa, absorbance at 405 nm, IC50 determination). The class given is biochemical. Conditions: read-out: KLKB1 pIC50 (converted). How it is done:
In Vitro Plasma Kallikrein Inhibition Assay
The chromogenic substrate D-Pro-Phe-Arg-pNa, 2HCl (BIOPHEN CS-31(02) from Hyphen BioMed, Neuville-Sur-oise, France) was dissolved in 5 mL deionized water and stored at 4° C. […] All other chemicals were of analytical grade.
A stock solution of 7 μM in 50% glycerol was stored at −20° C.
Enzyme reactions were conducted in “assay buffer” comprised of 20 mM HEPES at pH 7.4, 150 mM NaCl, 0.1% PEG-8000 and 0.01% Triton X-100.
Both enzyme and substrate were diluted in assay buffer.
Plate measurements were conducted using a SPECTROStar Nano reader (BMG Labtech, San Francisco, Calif., USA). […] We used discrete wavelength, precise, kinetic reads of 15 cycles with a 60 sec cycle time.
Determination of IC50 values
The test compound was dissolved in 100% DMSO. The compounds were serially diluted in DMSO in a 7 point dose response. For the assays, 66.5 μL of protease solution (protease in assay buffer) was added per well followed by the addition of 8.5 μL of compound in 100% DMSO. […] After 30 min. incubation at room temperature on an orbital shaker, the reactions were started by the addition of 10 μL substrate solution (in assay buffer, final assay concentration was 600 uM). After the addition of the substrate solution the final DMSO concentration was 10%. The plate was placed again on the shaker for 5 sec, spun at 2000 rpm for 5 sec and read on the spectrophotometer. […] The IC50 value was calculated from the plot of rate vs. inhibitor concentration by a 4 parameter logistic equation: y=A+((B−A)/([…]))
where y is the rate at the inhibitor concentration, x. A is the minimum y value at the highest inhibitor concentration and B is the y value in the absence of inhibitor, C is the IC50 value and D is the slope factor. The curve fitting was conducted with the non-linear regression routine of the analysis software XLfit (IDBS, version 5.3.1).
In the case of `N=C(N)c1cc(F)c(CNC(=O)c2ccc3c(c2)[C@@H]2O[C@H]3c3ccc(-n4nccn4)cc32)c(F)c1` (single isomer, unassigned) [Example 297], the IC50 is 0.0302 µM. With `Cc1cc(N)nc(C)c1CNC(=O)c1ccc2c(c1)[C@@H]1O[C@H]2c2ccc(N(C)C(=O)c3ccccc3)cc21` (single isomer, unassigned) [Example 243], the IC50 is 1.23 µM. To `O=C(NC1CCNCC1)c1ccc2c(c1)[C@@H]1O[C@H]2c2ccc(-c3ccc(F)cc3F)cc21` (single isomer, unassigned) [Example 345] belongs 33.9 µM. Next, `Nc1ccnc(NC(=O)c2ccc3c(c2)[C@@H]2O[C@H]3c3ccc(-c4ccc(F)cc4F)cc32)c1` (single isomer, unassigned) [Example 309]: 100 µM; `Cc1cc2ccnc(N)c2cc1CNC(=O)c1ccc2c(c1)[C@@H]1O[C@H]2c2ccc(-c3ccccc3F)cc21` (single isomer, unassigned) [Example 300]: 3.16 µM. Next, `Cc1cc(N)nc(C)c1CNC(=O)c1ccc2c(c1)C1OC2c2cc(Br)c(Br)cc21` (racemic) [Example 301, N-[(6-amino-2,4-dimethylpyridin-3-yl)methyl]-11,12-dibromo-15-oxatetracyclo [6.6.1.0^2,^7.0^9,1^4]-pentadeca-2,4,6,9,11,13-hexaene-4-carboxamide]: 0.389 µM; `Cc1cc2c(c(Cl)c1CNC(=O)c1ccc3c(c1)C1OC3c3ccc(-c4ccc(F)cc4F)cc31)CNC2` (racemic) [Example 131, (±)-N[(4-chloro-6-methyl-2,3-dihydro-1H-isoindol-5-yl)methyl]-12-(2,4-difluoropheny])-15-oxatetracyclo [6.6.1.0^2,^7.0^9,1^4] pentadeca-2,4,6,9,11,13-hexaene-4-carboxamide]: 7.41 µM; `Cc1nc(N)nc(C)c1CNC(=O)c1ccc2c(c1)[C@@H]1O[C@H]2c2ccc(-c3ccc(F)cc3F)cc21` (single isomer, unassigned) [Example 182]: 21.4 µM. Turning to `Nc1cccc(NC(=O)c2ccc3c(c2)[C@@H]2O[C@H]3c3ccc(-c4ccc(F)cc4F)cc32)c1` (single isomer, unassigned) [Example 287], the IC50 was 10 µM. To `Nc1ccc(NC(=O)c2ccc3c(c2)[C@@H]2O[C@H]3c3ccc(-c4ccc(F)cc4F)cc32)cn1` (single isomer, unassigned) [Example 304] belongs 10 µM; to `N=C(N)c1ccc(CNC(=O)c2ccc3c(c2)[C@@H]2O[C@H]3c3ccc(-c4ccc(F)cc4F)cc32)c(F)c1` (single isomer, unassigned) [Example 291], 0.001 µM.

Consider `Cc1cc(N)nc(C)c1CNC(=O)c1ccc2c(c1)C1OC2c2cc(Nc3ccn(C)n3)ccc21` (racemic) [Example 52, (1R,8S)-12-cyclopropyl-N-{[5-(N′-methoxycarbamimidoyl)pyridin-2-yl]-methyl}-15-oxatetracyclo[6.6.1.0^2,7.0^9,14]pentadeca-2,4,6,9,11,13-hexaene-4-carboxamide], for which the IC50 was 1.51 µM. For `N=C(N)c1cccc(CNC(=O)c2ccc3c(c2)[C@@H]2O[C@H]3c3ccc(-c4ccccc4F)cc32)c1` (single isomer, unassigned) [Example 200], the IC50 is 1.23 µM. As to `Nc1ccc(NC(=O)c2ccc3c(c2)[C@@H]2O[C@H]3c3ccc(-c4ccc(F)cc4F)cc32)cc1` (single isomer, unassigned) [Example 288], the IC50 was 100 µM.

Regarding `O=C(NCC1CCNCC1)c1ccc2c(c1)[C@@H]1O[C@H]2c2ccc(-c3ccc(F)cc3F)cc21` (single isomer, unassigned) [Example 313], the IC50 is 47.9 µM.
